The values that follow come from patent CN116723860A (NOVARTIS AG, dated 2023).

One experiment addresses T1, 重组人IL-18 (human, UniProt Q14116 37-193).
T1 construct: also called huIL-18; BTP 25829
In words: SET, simultaneous target binding assays A and B.

In the next experiment the target is T2, 重组人IL-1β (human, UniProt P01584 117-269).
T2 construct: also called huIL-1β; IL-1b
In words: solution equilibrium titration (SET), single target binding assay, mean KD.

B1: bbmAb1 (bispecific antibody, human IgG1, kappa, lambda, L234A L235A)
heavy 1: not shown
light 1: not shown
heavy 2: not shown
light 2: EIVLTQSPDFQSVTPKEKVTITCRASQSIGSSLHWYQQKPDQSPKLLIKYASQSFSGVPSRFSGSGSGTDFTLTINSLEAEDAAAYYCHQSSSLPFTFGPGTKVDIKRTVAAPSVFIFPPSDEQLKSGTASVVCLLNNFYPREAKVQWKVDNALQSGNSQESVTEQDSKDSTYSLSSTLTLSKADYEKHKVYACEVTHQGLSSPVTKSFNRGEC
On to B1, for which the binding result in the experiment with 重组人IL-18 is recorded as “binds”. Moreover, the affinity with 重组人IL-1β, expressed as Kd, was 2.6 pM.
